The nature of this assay: Selectivity index, ratio of IC50 for HIV integrase to IC50 for inhibition of RNase H activity of full length recombinant HIV1 reverse transcriptase.

The structures appear in SMILES notation.

As to `COc1ccc(-c2cccc(Nc3cc(=O)n(O)c(=O)[nH]3)c2)c(OC)c1`, the Ratio IC50 turned out to be 3.9.

The values are drawn from ChEMBL document CHEMBL4428027, “3-Hydroxypyrimidine-2,4-diones as Selective Active Site Inhibitors of HIV Reverse Transcriptase-Associated RNase H: Design, Synthesis, and Biochemical Evaluations” (J Med Chem, 2016).
